Experimental data: paper PMC7321161, “The Intriguing Effects of Substituents in the N-Phenethyl Moiety of Norhydromorphone: A Bifunctional Opioid from a Set of “Tail Wags Dog” Experiments” (Molecules, 2020)

By UniProt entry, the sequences of proteins in these tests, tags left out.
UniProt P35372, whole entry: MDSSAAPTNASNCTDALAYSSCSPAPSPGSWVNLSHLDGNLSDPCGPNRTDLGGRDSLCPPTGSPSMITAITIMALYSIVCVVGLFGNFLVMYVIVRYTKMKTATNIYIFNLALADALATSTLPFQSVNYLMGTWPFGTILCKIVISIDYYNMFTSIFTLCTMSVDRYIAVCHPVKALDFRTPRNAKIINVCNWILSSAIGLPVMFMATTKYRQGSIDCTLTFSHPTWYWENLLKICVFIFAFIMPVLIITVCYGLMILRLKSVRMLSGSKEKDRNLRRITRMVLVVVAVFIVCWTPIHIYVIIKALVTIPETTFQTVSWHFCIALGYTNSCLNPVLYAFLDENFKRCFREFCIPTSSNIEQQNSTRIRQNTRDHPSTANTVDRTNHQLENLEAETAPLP

Assays:
[1] = target: T1, human μ-opioid receptor (OPRM1) (Homo sapiens, UniProt P35372); assay: cell-based; details: OPRM1, read-out: MOR cAMP % Efficacy
T1 construct: host or cells: HitHunter CHO-K1 cells

[2] = target: T2, human μ-opioid receptor β-arrestin-2 (Homo sapiens, UniProt P35372); assay: cell-based
T2 construct: enzyme fragment for EFC (β-galactosidase ProLink fragment, by own knowledge of the PathHunter system); host or cells: PathHunter CHO cells

**Q.** Which results are given for `CN1CC[C@]23c4c5ccc(O)c4O[C@H]2C(=O)CC[C@H]3[C@H]1C5` [Compound S5, hydromorphone]?
**A.** Emax [1]: 102%; Bias Factor [2]: 3.48; Emax ([2]; read-out: MOR Mediated β-arrestin Recruitment (% Control, Emax DAMGO)): 19.8%
